Legend:
[1] = Crystal form stability under grinding, heating and tableting treatments; conditions: for crystal form stability: grinding, heating, and tableting treatments
Source text: The crystal form I of the p-toluenesulfonate of the compound represented by formula (I) prepared according to the method of Example 1 was subjected to grinding, heating, and tableting treatments. […] Table 8. Stability study of crystal form I of p-toluenesulfonate

[2] = Stability of related substances (light exposure, high temperature, high humidity; open containers); conditions: for stability of related substances, High humidity: high humidity 25 °C, RH 90% ± 5%; for stability of related substances, High humidity / stability of related substances, 60 °C / stability of related substances, Light exposure: open container; for stability of related substances, 60 °C: high temperature 60 °C; for stability of related substances, Light exposure: light exposure 5000 Lux ± 500 Lux
Description: (§1) Samples of the crystal form A of the compound represented by formula (I), the crystal form B of the compound represented by formula (I), the crystal form I of the p-toluenesulfonate of the compound represented by formula (I), and the crystal form I of the hydrochloride of the compound represented by formula (I) were separately spread out and left to stand in open containers, and subjected to 10-day and 30-day stability tests under light exposure (5000 Lux ± 500 Lux), high temperature (60 °C), and high humidity (25 °C, RH 90% ± 5%) conditions to investigate the stability of related substances. Table 6. Comparison of stability data of related substances under different conditions

[3] = Pharmacokinetic experiment, single oral gavage; conditions: Beagle dogs
Source text: Number of animals: 6 Beagle dogs per group, half male and half female.
Grouping method: Dogs were randomly grouped by sex based on body weight.
A sample of the crystal form B of the compound represented by formula (I) was taken and added to a mixed solution of Solutol HS 15 and 20% HP-β-CD, and the resulting mixture was well mixed by ultrasonication and vortexing to give the desired reagent. Post-preparation storage condition and shelf life: the prepared reagent could be temporarily stored in a refrigerator at 2-8 °C for 3 h.
A sample of the crystal form I of the p-toluenesulfonate of the compound represented by formula (I) was taken and added to a mixed solution of Solutol HS 15 and 20% HP-β-CD, and the resulting mixture was well mixed by ultrasonication and vortexing to give the desired reagent.
A sample of the crystal form I of the p-toluenesulfonate of the compound represented by formula (I) was taken and added to a mixed solution of SBE-β-CD and 50 mM sodium acetate (pH 4.61), and the resulting mixture was well mixed by ultrasonication and vortexing to give the desired reagent. Post-preparation storage condition and shelf life: the prepared reagent could be temporarily stored in a refrigerator at 2-8 °C for 3 h.
Administration dose: 10 mg/kg, calculated based on the content of the compound represented by formula (I).
Administration concentration: 2 mg/mL.
Administration volume: 5 mL/kg.
Administration frequency: single administration.
Administration route: oral gavage.
Sampling time points: before administration, and 15 min (± 1 min), 30 min (± 1 min), 1 h (± 2 min), 2 h (± 2 min), 4 h (± 5 min), 8 h (± 5 min), and 24 h (± 20 min) after administration.
Sampling animals: all surviving dogs in each group.
Sampling site: forelimb vein or other suitable veins.
Sampling amount: about 0.5 mL, with heparin sodium as an anticoagulant.
Blood sample treatment: The collected blood samples were each added into a centrifuge tube containing the anticoagulant and mixed well with the anticoagulant by gentle shaking. The whole blood samples were placed in an ice box protected from light before centrifugation. They were then centrifuged at 1800 rpm for 10 min at 2-8 °C within 2 h to separate plasma. The plasma was divided into 2 aliquots and stored at -66 °C or below until analysis.
Data processing and analysis: Pharmacokinetic parameters including Cmax, Tmax, AUClast, and AUC0-∞ were calculated using a non-compartmental model.
Tmax and Cmax were obtained from measured values.
AUC0-t was calculated using the linear trapezoidal method, where t represents the time of the last quantifiable plasma concentration; AUC0−∞ = AUC0−t + Ct /λz , [formula] where Ct represents the plasma concentration at the last time point with a quantifiable concentration, and λz represents the terminal elimination rate constant.

[4] = Crystal form stability test (light exposure, high temperature, high humidity; open containers); conditions: open container, 30 days
Description: as §1, with “the crystal forms.” for “related substances.”, “5.” for “6.”, “crystal forms after standing for 30 days” for “related substances”

[5] = 10 mg/kg single administration, compared with the free base
[6] = Vehicle SBE-β-CD and 50 mM sodium acetate
[7] = Vehicle Solutol HS 15 and 20% HP-β-CD

For `CN(C)Cc1ccc(-c2cnc(NCc3c(F)ccc4c3CCO4)n3cnnc23)c2ncnn12` [Crystal form I of p-toluenesulfonate of compound represented], the Crystal form ([1]; after Grinding for 10 min in a mortar) was “Crystal form I of p-toluenesulfonate”, the Crystal form ([1]; after Heating at 80 °C for 3 h) was “Crystal form I of p-toluenesulfonate” and the Crystal form ([1]; after Tableting) was “Crystal form I of p-toluenesulfonate”. For the same compound, the crystal form stability ([1]; listed as crystal form I of the p-toluenesulfonate of the compound of formula (I)) was “good stability”, the crystal form stability ([1]; listed as crystal form I of the p-toluenesulfonate of the compound represented by formula) was “stable” and the “stability of related substances, High humidity” value (from here on “stability … High humidity”) ([2]; 0 days) was 99.44%. For the same compound, the “stability of related substances, 60 °C” value ([2]; 0 days) was 99.44%, the “stability of related substances, Light exposure” value (“stability … Light exposure” below) ([2]; 0 days) was 99.44% and the “stability … High humidity” value ([2]; 10 days) was 99.44%. The “stability of related substances, 60 °C” value ([2]; 10 days) was 99.44%, the “stability … Light exposure” value ([2]; 10 days) was 99.08% and the “stability … High humidity” value ([2]; 30 days) was 99.44%. The “stability of related substances, 60 °C” value ([2]; 30 days) was 99.42%, the “stability … Light exposure” value ([2]; 30 days) was 98.95% and the “stability of related substances” value ([2]; high temperature conditions (60 °C), comparison with hydrochloride) was “superior to that of the crystal form I of the hydrochloride”. The AUC [3, 5] was “higher”, the Cmax [3, 5] was “higher” and the exposure [3, 5] was “greater”. The “time to peak in vivo” value [3, 5] was “shorter”, the “AUC0-∞” value [3, 6] was 2720 ± 1170 ng·h/mL and the AUClast [3, 6] was 2680 ± 1150 ng·h/mL. For the same compound, the Cmax [3, 6] was 1080 ± 636 ng/mL, the Tmax [3, 6] was 32.4 ± 15 min and the “AUC0-∞” value [3, 7] was 2220 ± 691 ng·h/mL. The AUClast [3, 7] was 2190 ± 689 ng·h/mL, the Cmax [3, 7] was 448 ± 123 ng/mL and the Tmax [3, 7] was 30 ± 0 min. The “Crystal form after standing, High humidity” value ([4]; 25 °C, RH 90% ± 5%) was “Crystal form I of p-toluenesulfonate”, the “Crystal form after standing, 60 °C” value ([4]; high temperature 60 °C) was “Crystal form I of p-toluenesulfonate” and the “Crystal form after standing, Light exposure” value ([4]; light exposure 5000 Lux ± 500 Lux) was “Crystal form I of p-toluenesulfonate”.
